Experiment: Solubility of complexes in isohexane at room temperature
Assay type: physicochemical
Conditions: room temperature (20° C.-25° C.); for Solubility in isohexane: cocrystallized solvent included in formula weight; for Solubility in isohexane (wt %): cocrystallized solvent included in mass
Experimental: General considerations: Solubility studies were performed using complexes that were isolated as crystalline or microcrystalline solids. […] Complex 3, embodying the present technological advancement, was cocrystallized with 0.6 equivalents of isohexane. Complex 4, embodying the present technological advancement, was cocrystallized with 0.5 equivalents of isohexane. Solvents used were sparged with nitrogen (30-60 minutes) and dried over 3 angstrom molecular sieves. Unless stated otherwise all measurements were performed at ambient temperature (20° C.-25° C.).
General procedure: A tared vial was loaded with a small amount of the complex (actual mass recorded, typically 5-30 mg). Then a small stir bar (8 mm) was added. Solvent was then added and the mixture was stirred rapidly (1000 rpm). […] This process was repeated until either a clear solution was obtained (no visible solids or murkiness) or the vial was full. As the mixture approached homogeneity (i.e., few remaining solids observed) the volume of the solvent additions was kept small (<1 mL) to minimize the overshooting of the solvent required to achieve homogeneity. The stir bar was then removed and the mass of the mixture was measured. If a clear solution had formed then the solubility of the complex was calculated based on the mass of complex and the amount of solvent added to achieve a homogeneous solution. If the mixture remained heterogeneous (visible solids or murky), then the value reported is given as being “less than” the calculated value. Formulas used to calculate solubility are listed below. Cocrystallized solvent is included in the mass and formula weights of the complexes. The density of isohexane used in the calculations was 0.672 g/ml, and the density of the complex was assumed to be 1.0 g/ml.
Solubility (in wt %)=[100]*[(weight of complex)/(weight of solution)]
Solubility (in mM)=[10^6]*[(grams of complex)/(formula wt. of complex in g/mol)]/[(grams of solvent)/(density of solvent in g/mL)]

Substance | Solubility in isohexane | Solubility in isohexane (wt %)
dimethylzirconium[2′,2′″-(pyridine-2,6-diyl)bis(3-adamantan-1-yl)-5-(tert-butyl)-[1,1′-biphenyl]-2-olate)] [Complex 2, reference compound] | 520 µM | 0.081 wt %
dimethylzirconium[2′,2′″-(pyridine-2,6-diyl)bis(3-adamantan-1-yl)-5-methyl-[1,1′-biphenyl]-2-olate)] [Complex 1, reference compound] | <600 µM | <0.08 wt %
